This note sets out measurements from ChEMBL document CHEMBL5154659, “A3 adenosine receptor agonists containing dopamine moieties for enhanced interspecies affinity” (Eur J Med Chem, 2022).

The chains behind the UniProt entries cited, without tags or fusion partners.
UniProt P30542, whole entry: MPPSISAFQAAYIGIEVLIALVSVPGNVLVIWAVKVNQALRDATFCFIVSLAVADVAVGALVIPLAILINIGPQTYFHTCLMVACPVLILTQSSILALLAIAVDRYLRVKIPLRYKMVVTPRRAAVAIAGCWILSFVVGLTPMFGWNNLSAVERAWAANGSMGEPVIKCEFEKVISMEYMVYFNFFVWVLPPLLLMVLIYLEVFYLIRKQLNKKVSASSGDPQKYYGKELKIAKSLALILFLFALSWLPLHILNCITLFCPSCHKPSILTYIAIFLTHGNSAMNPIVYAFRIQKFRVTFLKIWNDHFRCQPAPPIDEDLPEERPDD

The target in one experiment is Adenosine receptor A1 (Homo sapiens, UniProt P30542). Put plainly: Binding affinity to human adenosine A1A receptor expressed in human HEK293 cell membrane at 10 uM by radioligand inhibition assay. Type of experiment: cell membranes.
`CNC(=O)[C@@]12C[C@@H]1[C@@H](n1cnc3c(NCCc4ccc(OC)c(O)c4)nc(OCCCC4CCCCC4)nc31)[C@H](O)[C@@H]2O` returned an inhibition of 15%.

On to `CNC(=O)[C@@]12C[C@@H]1[C@@H](n1cnc3c(NCCc4ccc(OC)c(O)c4)nc(OCCC(C)C)nc31)[C@H](O)[C@@H]2O`, for which the inhibition worked out at 16%.

With `CNC(=O)[C@@]12C[C@@H]1[C@@H](n1cnc3c(NCCc4ccc(OC)c(O)c4)nc(OCC4CC4)nc31)[C@H](O)[C@@H]2O`, the inhibition is 31%.

`CNC(=O)[C@@]12C[C@@H]1[C@@H](n1cnc3c(NCCc4ccc(OC)c(OC)c4)nc(I)nc31)[C@H](O)[C@@H]2O` gave an inhibition of 45%.

Turning to `CNC(=O)[C@@]12C[C@@H]1[C@@H](n1cnc3c(NCCc4ccc(OC)c(O)c4)nc(OCC(C)C)nc31)[C@H](O)[C@@H]2O`, the inhibition is 25%.

Another experiment deals with Adenosine receptor A2a (Homo sapiens, UniProt P29274). Put plainly: Binding affinity to human adenosine A2A receptor expressed in human HEK293 cell membrane at 10 uM by radioligand inhibition assay. Format: cell membranes.
In the case of `CNC(=O)[C@@]12C[C@@H]1[C@@H](n1cnc3c(NCCc4ccc(OC)c(O)c4)nc(OCCCC4CCCCC4)nc31)[C@H](O)[C@@H]2O`, the inhibition was 30%.

Molecule `CNC(=O)[C@@]12C[C@@H]1[C@@H](n1cnc3c(NCCc4ccc(OC)c(OC)c4)nc(I)nc31)[C@H](O)[C@@H]2O` came in with an inhibition of 29%.
